# pIC50: −log10 of the molar value.
# Amino acid sequences for entries named in this document (tags omitted).
# UniProt P47747, whole entry: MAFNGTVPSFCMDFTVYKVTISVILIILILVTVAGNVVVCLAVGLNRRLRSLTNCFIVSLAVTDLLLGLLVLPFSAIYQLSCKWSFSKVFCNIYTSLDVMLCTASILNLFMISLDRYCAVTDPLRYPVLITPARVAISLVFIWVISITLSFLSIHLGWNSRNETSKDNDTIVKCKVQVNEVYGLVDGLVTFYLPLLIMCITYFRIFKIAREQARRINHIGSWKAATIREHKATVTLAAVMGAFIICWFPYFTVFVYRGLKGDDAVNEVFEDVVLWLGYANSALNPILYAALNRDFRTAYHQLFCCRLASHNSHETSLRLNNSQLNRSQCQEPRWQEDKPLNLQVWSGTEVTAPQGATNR
# Target: Histamine H2 receptor (Cavia porcellus, UniProt P47747)
# Assay: Histamine H2 receptor antagonistic activity
# Format: functional
compound,measurement,value
CN/C(=N/CCSCc1nc[nH]c1C)NC#N [CIMETIDINE],pIC50,4.83
